Source: publication PMC3560935 (Anesthesiology, 2011)

The chains behind the UniProt entries cited, without tags or fusion partners.
UniProt P41143, whole entry: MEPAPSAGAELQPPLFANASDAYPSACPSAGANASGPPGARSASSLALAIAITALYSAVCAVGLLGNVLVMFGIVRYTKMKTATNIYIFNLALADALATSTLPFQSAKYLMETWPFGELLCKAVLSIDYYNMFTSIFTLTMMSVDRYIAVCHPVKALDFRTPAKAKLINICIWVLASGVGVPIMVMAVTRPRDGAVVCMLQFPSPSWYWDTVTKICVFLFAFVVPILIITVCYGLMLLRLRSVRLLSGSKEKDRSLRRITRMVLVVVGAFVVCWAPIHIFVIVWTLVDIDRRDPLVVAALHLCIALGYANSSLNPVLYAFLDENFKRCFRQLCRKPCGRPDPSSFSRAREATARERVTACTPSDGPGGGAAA

Biological target: human delta opioid receptor (Homo sapiens, UniProt P41143)
Assay type: binding

CO[C@]12CC[C@@]3(C[C@@H]1[C@](C)(O)C(C)(C)C)[C@H]1Cc4ccc(O[C@@H]5O[C@H](C(=O)O)[C@@H](O)[C@H](O)[C@H]5O)c5c4[C@@]3(CCN1CC1CC1)[C@H]2O5 [Buprenorphine-3-glucuronide, buprenorphine-3-glucuronide]
inhibition of 3H-diprenorphine delta receptor binding (in words): Ki in the nanomolar range | Ki (read-out: apparent Ki, Delta): 0.27 ± 0.0004 µM
